Patent US10219528B2 (Zinpro Corporation, priority 2016, dated 2019)
Where two headings read alike, the source gives them in different places.

What was measured:
[1] = Solubility test of folate precipitates suspended in water at pH 7.0, filtered, insoluble solid weighed; assay type: physicochemical
Source text: In the parent application is was noticed that when soluble metal salts were mixed with folic acid there would be a precipitate forming after the addition of the metal salt. This precipitate was isolated and its solubility measured. According to the following procedure: The precipitates were suspended in water and the pH was adjusted to 7.0 with dilute HCl. […] The solids were dried and weighed to determine the mass of insoluble product. Very similar molar amounts of folic acid are used in this procedure.

[2] = in vivo
Source text: The animals were separated into groups and housed in a barn with access to a pasture. The dosing regime was as follows. […] The sheep were fed the test feeds for fourteen (14) days.
Example 22 is a sheep study using the protocol of Example 20 but with the Mn and iron mixtures of Example 5 and 7, respectively. […] In this test the ewes were fed the concentrate metal folate mixture dried without any carrier but mixed on ground corn for feeding.
The liquid mixtures were then sprayed directly on ground corn.

[3] = cattle calves, 120 mg folic acid source per day for 14 days, comparison with no folic acid control group (FIG. 5)

Question: Which “Insoluble Mass” value [1] does the source give for Zinc folate here?
Answer: 3.70 g

Question: With Manganese Folate Mixture [Example 25] as the substance, how does the “serum results (effectiveness)” value [2] read?
Answer: effectiveness can be achieved without a carrier

Question: With Zinc Folate Mixture [Example 24] as the substance, how does the “serum results (effectiveness)” value [2] read?
Answer: effectiveness can be achieved without a carrier

Question: Which results are given for Manganese folate?
Answer: Insoluble Mass ([1]; suspended in 100 mL water, pH adjusted to 7.0, stirred, filtered, solid dried and weighed, about 3 g folate equivalents (6.8 mmols)): 3.64 g; Insoluble % ([1]; suspended in water at pH 7.0, stirred, filtered, solid dried and weighed): 98%; Insoluble % ([1]; suspended in water at pH 7.0, stirred, filtered, solid dried and weighed, listed as Manganese folate): 98%

Question: Which “blood serum folic acid change” value [3] does the source give for Copper Folate Mixture [Example 3] here?
Answer: changed significantly for the positive

Question: Which “Insoluble Mass” value [1] does the source give for Copper folate here?
Answer: 4.09 g

Question: And the Insoluble % ([1]; pH 7)?
Answer: 98%
